Assay results reported in patent US6750247B2, “Sponge-derived terpenoids and methods of use” (Galileo Laboratories, Inc., priority 2001, dated 2004).

Experiments:
[1] = system: primary hippocampal neuronal cells; test: Hippocampal anoxia-reoxygenation cell death assay; type: cell-based, mice; details: at dose for max. activity; 5 hr hypoxia, 20-24 hr reoxygenation, live neurons by Cell Tracker Green
Protocol: Neurobasal medium (Life Technologies, Rockville, Md.) with 1× B27 supplement (Life Technologies), […], 25 μM L-glutaxnic acid, and 1× Penicillin/Streptomycin was prepared fresh prior to use. Hank's Basic Salt Solution (HBSS, Ca/Mg-free) was prepared by preparing 1× Hanks CMF (Gibco) supplemented with HEPES (10 mM, pH 7.3), sodium bicarbonate (0.35%), 1× Penicillin/Streptomycin, and 1 mM pyruvate. Poly-D-lysine (Sigma, St. Louis, Mo.) was prepared by filtering a 50 μg/ml solution through 0.2 μm filter tubes. Sigmacote (Sigma, St. Louis, Mo.). Plastic Culture Flasks (T75 cm^2) or 12-well cell culture plates were then treated with Poly-D-Lysine (Sigma, St. Louis, Mo.).
Pregnant female mice (E18-E19) were euthanized with CO2 prior to removal of the uterus, which was then placed in a sterile plastic petri dish. The embryos were removed from the sac, and the embryonic brains removed and immersed in cold (4° C.) Hepes Buffered Salt Solution (HBSS; Ca/Mg free; Life Technologies) in a small petri dish. Hippocampi were then removed from the brains under a dissecting microscope and were placed on a paraffin-covered dish. […]
The density of cells was determined on a small aliquot of cells using standard counting procedures and correcting for cell viability by trypan blue stain exclusion. […]

neonatal cardiomyocytes = test: Myocyte calcium-contractility assay (cardiomyocyte beating anoxia assay); type: cell-based, rat; details: 16 hr anoxia, 2 hr reoxygenation
Protocol: 10× Heart Dissection Solution (HDS) contains the following components (g/l) in tissue culture grade water: NaCl, 68; HEPES, 47.6; NaH2PO4, 2; Glucose, 10; KCl, 4; MgSO4, 1, pH adjusted to 7.4. Prior to filter sterilization of diluted (1× HDS) solution, 10 mg phenol red was added to each 500 milliliters of medium. Transferrin and Bovine Insulin were obtained from Life Technologies, and resuspended at a concentration of 4 mg/ml in tissue culture grade water. DMEM-F12- DMEM/F12, powder, 1:1 containing glutamine and pyridoxine hydrochloride was purchased from Life Technologies. To one liter equivalent of the powder was added 2.43 g of sodium bicarbonate and 10 ml of 100× Penicillin/Streptomycin in 950 ml of tissue culture grade water with stirring. The pH was adjusted to 7.2 with 1M HCl and volume was adjusted to 1 liter. The solution was filter sterilized then 2.5 ml of 4 mg/ml Transferrin, 250 μl 4 mg/ml Insulin and 30.7 mg of bromodeoxyuridine were added. DMEM-F12 was also prepared with 4% FBS for pre-coating the tissue culture plates and initial suspension of the cardiomyocyte pellet. Collagenase solution-49 mg of collagenase was resuspended in 120 ml 1× HDS.
Tissue culture plasticware was pre-coated with DMEM-F12-4% FBS by incubating 50 μl per well of a 96-well plate. Two-day old rat pups were removed from their mothers and placed in a sterile container. Pups were dipped quickly into 70% alcohol, then decapitated and the body was placed in an empty sterile tissue culture dish. An incision was made starting at the neck and progressing towards the belly, cutting through the sternum. The heart was removed and placed in a tissue culture dishes containing 1× HDS. The atria were trimmed, and the remaining ventricles were placed into a separate tissue culture dish containing 1× HDS, where they were sectioned into 3-4 pieces each. Ventricles were then transferred to a sterile 250 ml glass flask and the 1× HDS was removed. Twenty milliliters of pre-warmed collagenase solution were added to the ventricles, followed by incubation at 37° C. with shaking. […]

Substance: 2-[5-hydroxy-4-methyl-6-(2,5,5,8a-tetramethyl-1,4,4a,5,6,7,8,8a-octahydro-naphthalen-1-yl)-hexyl]-2-methyl-2H-chromenyl sodium sulfate [Hipposulfate D (9)]
- Percent Activity [1]: No activity at 10 μg/mL
- Dose for Max. Activity (neonatal cardiomyocytes): 75 µg/mL
- cell viability (neonatal cardiomyocytes): increased cell viability
- Percent Activity (neonatal cardiomyocytes; at dose for max. activity, Fluo-4 fluorescence): 70%
